{"source": "paper PMC5758054", "about": "(Journal of natural products, 2017)", "origin": "cited, not measured here", "test_system": "DPP4", "conditions": "ref [35]"}
{"smiles": "N#C[C@@H]1CCCN1C(=O)CNC12CC3CC(CC(O)(C3)C1)C2", "note": "[Vildagliptin]", "values": [{"measurement": "prevention of GLP-1 degradation by DPP4 (in words)", "result": "prevent DPP4 from degrading glucagon-like peptide 1 (GLP-1)"}]}
